Details: 6x-histadine tagged PGA immobilized on 90 μm Ni-NTA magnetic agarose particles, 32 mg PGA/mL bead

Substance: penicillin G acylase [PGA]
- PGA activity: 17.2 U/mg PGA
